The text below walks through data of patent US6392049B1, “Process for preparing 2,4-dihydroxypyridine and 2,4-dihydroxy-3-nitropyridine” (Aventis Pharmaceuticals Inc., priority 1996, dated 2002).

The chains behind the UniProt entries cited, without tags or fusion partners.
UniProt P30543, whole entry: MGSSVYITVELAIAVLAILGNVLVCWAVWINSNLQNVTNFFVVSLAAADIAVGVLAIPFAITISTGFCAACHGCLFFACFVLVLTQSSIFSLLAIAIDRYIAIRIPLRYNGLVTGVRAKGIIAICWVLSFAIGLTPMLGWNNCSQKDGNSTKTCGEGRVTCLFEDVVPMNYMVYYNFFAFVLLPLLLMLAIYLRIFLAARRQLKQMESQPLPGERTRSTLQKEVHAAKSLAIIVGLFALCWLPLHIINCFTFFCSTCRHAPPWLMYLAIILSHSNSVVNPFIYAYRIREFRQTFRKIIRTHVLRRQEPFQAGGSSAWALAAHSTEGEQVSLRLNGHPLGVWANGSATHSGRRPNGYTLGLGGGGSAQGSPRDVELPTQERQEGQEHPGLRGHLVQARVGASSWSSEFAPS
UniProt P25099, whole entry: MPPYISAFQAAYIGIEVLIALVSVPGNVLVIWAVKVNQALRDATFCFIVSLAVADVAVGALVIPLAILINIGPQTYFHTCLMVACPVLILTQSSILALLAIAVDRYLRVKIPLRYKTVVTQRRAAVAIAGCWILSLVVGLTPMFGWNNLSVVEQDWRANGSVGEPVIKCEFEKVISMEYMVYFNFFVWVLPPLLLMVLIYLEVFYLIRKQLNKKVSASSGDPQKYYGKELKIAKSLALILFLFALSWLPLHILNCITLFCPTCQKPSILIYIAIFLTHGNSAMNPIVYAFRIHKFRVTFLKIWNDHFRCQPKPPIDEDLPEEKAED

The target in assay [1] is A2 receptor (Rattus norvegicus, UniProt P30543). The assay can be described thus: A2 adenosine receptor binding, displacement of 3H-CGS 21680, rat brain striatum membranes. The note with it: read-out: Adenosine Receptor Binding (IC50) A2; literature compounds, Table V, methods as above.
In assay [2] the target is T1, A1 receptor (Rattus norvegicus, UniProt P25099).
T1 construct: using a membrane preparation of whole rat brain; from tissue; host or cells: whole rat brain membranes
In words: A1 adenosine receptor binding, displacement of 3H-CHA, whole rat brain membranes.

The structures appear in SMILES notation.

Consider `C[C@H](Cc1ccccc1)Nc1ncnc2c1ncn2[C@@H]1O[C@H](CO)[C@@H](O)[C@H]1O` [R-PIA, R-phenylisopropyladenosine, reference compound], for which the 50% inhibitory concentration (IC50) in assay [1] stood at 0.3 µM. For `CCNC(=O)[C@H]1O[C@@H](n2cnc3c(N)nc(NCCc4ccc(CCC(=O)O)cc4)nc32)[C@H](O)[C@@H]1O` [CGS21680, 2-[[2-[4-[2-carboxethyl)phenyl]ethyl]amino]-N-ethylcarboxamidoadenosine, reference compound], in assay [2], the IC50 was determined as 30 µM.
